Measurements taken from BindingDB's records for doi:10.1016/j.bmcl.2011.09.113 (Johnson & Johnson Pharmaceutical Research and Development, 2011).

Test: Antagonist activity at CCR2 by chemotaxis functional assay

IC50: 4 nM
Compound: NC(=O)C(NC1CCC(c2c[nH]c3ccccc23)CC1)C1CCN(C(=O)/C=C/c2cc(F)cc(F)c2)CC1 (racemic)
